Results reported in PMC5511861, “DS16570511 is a small-molecule inhibitor of the mitochondrial calcium uniporter” (Cell Death Discovery, 2017).

Test system: Ca2+ uptake of pig heart mitochondria
Assay: Ca2+ uptake assay using isolated pig heart mitochondria (atomic absorbance spectrometer)
Assay type: biochemical
Conditions: 100 μM CaCl2

In the case of “carbonyl cyanide-p-trifluoromethoxyphenylhydrazone”, the “effect on Ca2+ uptake activity of isolated pig heart mitochondria (in words)” value is reported as “significantly inhibited”.
